Sequences of proteins named here, by UniProt entry; tags and fusion partners are left off. A change or cut given only in a name is not applied to a line headed by its entry.
UniProt P43116: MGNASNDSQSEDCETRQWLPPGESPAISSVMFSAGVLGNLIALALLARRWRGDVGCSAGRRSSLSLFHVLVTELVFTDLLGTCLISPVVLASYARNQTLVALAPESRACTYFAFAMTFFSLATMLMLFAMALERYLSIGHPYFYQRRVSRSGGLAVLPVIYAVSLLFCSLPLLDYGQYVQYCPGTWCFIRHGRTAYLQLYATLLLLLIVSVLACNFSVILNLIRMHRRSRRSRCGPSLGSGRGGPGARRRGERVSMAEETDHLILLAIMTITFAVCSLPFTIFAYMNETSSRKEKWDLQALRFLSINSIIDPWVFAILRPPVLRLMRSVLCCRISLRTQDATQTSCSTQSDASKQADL

In ChEMBL document CHEMBL3259737, “Lead optimization studies of cinnamic amide EP2 antagonists” (J Med Chem, 2014):

Experiments:
[1] = target: Prostaglandin E2 receptor EP2 subtype (Homo sapiens) (UniProt P43116); experiment: Competitive antagonist activity at human EP2 receptor expressed in rat C6 cells assessed as parallel rightward shift in PGE2 concentration response curve treated for 10 mins prior to PGE2 challenge for 40 mins by TR-FRET assay; type: cell-based
C6 = experiment: Cytotoxicity against rat C6 cells assessed as cell viability
[2] = Metabolic stability in mouse liver microsomes assessed as compound remaining at 1 uM after 60 mins
[3] = Ratio of drug level in brain to plasma in C57BL/6 mouse at 5 mg/kg, ip measured after 1 to 2 hrs
[4] = Ratio of drug level in brain to plasma in C57BL/6 mouse at 10 mg/kg, po measured after 1 to 2 hrs
in vivo [5] = conditions: C57BL/6, mouse, ip, 5 mg/kg
in vivo [6] = conditions: C57BL/6, mouse, po, 10 mg/kg

| SMILES | Kb [1] [nM] | inhibition [1] | CC50 (C6) [nM] | remaining at 1 h, 1 µM [2] [%] | Kp [3] | Kp [4] | Cmax (in vivo [5]) [ng/mL] | Cmax (in vivo [6]) [ng/mL] |
| --- | --- | --- | --- | --- | --- | --- | --- | --- |
| Cc1[nH]c2ccccc2c1CCNC(=O)/C=C/c1ccc(OCCO)c(OCCO)c1 | 47.1 | Dose-dependent effect | – | – | – | – | – | – |
| Cc1cc2ccccc2n1CCNC(=O)/C=C/c1ccc(OCCO)c(OCCO)c1 | 14.8 | Dose-dependent effect | – | – | – | – | – | – |
| COc1cc(/C=C/C(=O)NCCn2c(C(F)(F)F)cc3ccccc32)cc(OC)c1OC | – | – | 81000 | 2 | 1.8 | 1.6 | 115 | 248 |
